The data set deals with human primary fibroblasts (FB188 cells). The data set can be described thus: WST-1 viability assay, primary fibroblasts (FB188). Particulars: WST-1, 5 μM peptide, treated every 24 h, day 3, 1% FBS; triplicate. The class given is cell-based. As to the method: Figure 1. Effects of SRC-1 bioportides on cancer and primary fibroblast cells. (A) Viability of MCF-7 cells; (B) Viability of FB188 cells. Cells were seeded in 96-well plates at a density of 3000 or 2000 cells/well, respectively, and treated after every 24 h with the indicated peptide concentrations. Viability of both cell types was monitored at day 3 via the WST-1 assay. The values shown represent the mean values of one experiment, carried out in triplicate (mean ± SD). In total, three independent experiments were performed.
Cytotoxicity of peptides was measured via the WST-1 conversion assay (Roche, Mannheim, Germany). FB188 and MCF-7 cells were seeded in 96-well plates at a density of 2000 or 3000 cells/well, respectively, and allowed to adhere overnight. Subsequently the cells were pre-incubated for two days in medium containing 1% FBS without supplementary insulin and exposed to the indicated concentrations of the respective peptide for up to 3 days. WST-1 conversion was determined by colorimetric analysis at 450 nm. Briefly, WST-1 reagent (1/10 of sample volume) was added directly to the growth medium and incubated at 37 °C for 4 h. The absorbance was determined using a microplate reader (Molecular Devices, Sunnyvale, CA, USA) at 450 nm. Untreated cells were designated a cell survival value of 100%.
A general note: Tetrazolium assays rely on reduction of a dye to a coloured formazan, in cell work by metabolically active cells.

With TP10 [reference compound], the “Effect on viability of human primary fibroblasts” value is listed as “did not have any effect”.
